In experiment [1] the target is human mPGES1 (Homo sapiens (Human), UniProt O14684). Kind of experiment: Inhibition activity for human mPGES1 (enzyme assay, PGE2 HTRF). It is filed as biochemical. As to conditions: membrane protein from HEK-293 F transfected with human mPGES1. The protocol: The method described here is used for determining the inhibition activity of the present compounds for human mPGES1.
• 1. PGE2 Assay kit (Cisbio, #62P2APEB) • 2. Prostaglandin H2 (Sigma, #P7867-1MG) • 3. FlexStation3 microplate reader. II. Experimental Procedure • 1. Obtaining the membrane proteins of mPGES1 enzyme
The cell density of HEK-293 F was grown to 6×10^5 per milliliter and was transferred with the plasmid containing human mPGES1 gene by transfection reagent PEI the next day. The cells were continuously cultured for 72 hours at 37° C. with shaking. After centrifuging at 1100 g for 5 minutes, the cells were harvested. After ultrasonication in an ice bath and centrifugation at 5000 g for 10 minutes, the supernatant was obtained. The supernatant was centrifuged at 100000 g for 1 hour to obtain a precipitate. The precipitate was resuspended with storage buffer containing 10% glycerinum, subpackaged and frozen rapidly under liquid nitrogen, and stored at −80° C. • 2. mPGES1 enzyme assay
mPGES1 was diluted with assay buffer and added into plate at 49 μL/well supplemented with 1 μL of compound (the final concentration of each compound at seven gradient concentrations was 10000 nM, 1000 nM, 100 nM, 10 nM, 1 nM, 0.1 nM and 0.01 nM). Each well was added with 3.8 μL of 20 μg/mL PGH precooled on ice after shaking for 30 seconds and incubated for 7 minutes on ice. Then, each well was added with 53.8 μL of 6 mg/mL SnCl2 to quench the reaction. The sample was diluted with dilute buffer at 1:400. 10 μl of diluted sample, 5 μL PGE2-d2 and 5 μL anti-PGE2 Cryptate were added to a black 384-well plate, and incubated at 4° C. overnight. HTRF was determined using Flexstation, and the IC50 of the compounds was obtained by data processing software.
The inhibition activity of the present compounds on mPGES1 was tested by the assay described above.
(TR-FRET usually uses a lanthanide donor and a delayed reading to cut background.)

By UniProt entry, the sequences of proteins in these tests, tags left out. Where a name states a change or a piece, a line headed by the entry shows the natural chain unless it says otherwise.
UniProt O14684: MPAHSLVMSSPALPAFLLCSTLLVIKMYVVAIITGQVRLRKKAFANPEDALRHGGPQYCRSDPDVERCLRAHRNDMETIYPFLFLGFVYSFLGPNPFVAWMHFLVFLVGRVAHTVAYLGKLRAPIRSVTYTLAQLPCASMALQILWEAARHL

For experiment [2], the system named is secretion of PGE2 by A549 cells stimulated with IL-1β. Kind of experiment: Inhibition of the secretion of PGE2 by A549 cells stimulated with IL-1β. As to conditions: Homo sapiens, A549, 24 h, IL-1β 0.2 ng/mL. In kind it is cell-based. An excerpt:
The method described here was used for determining the inhibition activity of the present compounds on the secretion of PGE2 by A549 cells stimulated with IL-1β.
• 1. PGE2 Assay kit (Cisbio, #62P2APEB) • 2. IL-1β (Peprotech, # AF-200-01B) • 3. Cell line: A549 (ATCC: CCL-185) • 4. FlexStation3 microplate reader. II. Experimental Procedure
On the first day, A549 cells were inoculated in a 96-well plate at 40000/well. On the second day, the culture medium in the 96-well plate was removed and then added with 90 μL of compound diluted with culture medium (the concentration of each compound at seven gradient concentrations was 11111 nM, […], 1.11 nM, 0.11 nM and 0.011 nM). The cells were incubated for 30 minutes at 37° C. in an incubator, and then added with IL-1β to a final concentration of 0.2 ng/mL. Then, the cells were incubated for another 24 hours at 37° C. On the third day, 10 μl of supernatant, 5 μL of PGE2-d2 and 5 μL of anti-PGE2 Cryptate were added into a black 384-well plate, and then incubated at 4° C. overnight. HTRF was determined using Flexstation, and the IC50 of the compounds was obtained by data processing software.
The inhibition activity of the present compounds on the secretion of PGE2 by A549 cells stimulated with IL-1β was determined by the assay described above.

Each structure is given as a SMILES string. Values joined by “and” are separate entries in the source; they are usually repeats but may differ in a detail not shown here. Equal values may be shown once.

One may read the IC50 as the concentration that inhibits the measured activity by half. A higher IC50 goes with lower potency.

`CC(C)(F)C(=O)NCc1cnc(C(F)F)c(C(=O)Nc2ccc3c(c2)cc(-c2ccc(C(F)(F)F)cc2)n3[C@H]2CCOC2)c1` [Example 31, (S)-2-(Difluoromethyl)-5-(((2-fluoro-2-methyl-propanoyl)amino)methyl)-N-(1-(tetrahydrofuran-3-yl)-2-(4-(trifluoromethyl)phenyl)-1H-indol-5-yl)nicotinamide]: in experiment [1], the IC50 was 2.95 nM and 4.12 nM.
As for `CC(C)(F)C(=O)NCc1cnc(C(F)F)c(C(=O)Nc2ccc3c(c2)cc(-c2ccc(C(F)(F)F)cc2)n3C2CCOC2)c1` (stereo not shown) [Example 30, 2-(Difluoromethyl)-5-(((2-fluoro-2-methyl-propanoyl)amino)methyl)-N-(1-(tetrahydrofuran-3-yl)-2-(4-(trifluoromethyl)phenyl)-1H-indol-5-yl)nicotinamide], the IC50 in experiment [1] is 2.99 nM and 1.73 nM.
`CC(C)(F)C(=O)NCc1cnc(C(F)F)c(C(=O)Nc2ccc3c(c2)cc(-c2ccc(C(F)(F)F)cc2)n3[C@@H]2CCOC2)c1` [Example 32, (R)-2-(Difluoromethyl)-5-(((2-fluoro-2-methyl-propanoyl)amino)methyl)-N-(1-(tetrahydrofuran-3-yl)-2-(4-(trifluoromethyl)phenyl)-1H-indol-5-yl)nicotinamide]: the IC50 turned out to be 2.24 nM in experiment [1] and 18.8 nM in experiment [2].

The values are drawn from US10081629B2, “Amide derivatives and pharmaceutically acceptable salts thereof, preparation method thereof and medicinal application thereof” (Shanghai Hengrui Pharmaceutical Co., Ltd., priority 2014, dated 2018).
